42 compounds from PubChem BioAssay AID2553 (Johns Hopkins Ion Channel Center, 2010) can be followed below.

Chains of the proteins cited; added tags and fusions are not shown.
UniProt Q61143, whole entry: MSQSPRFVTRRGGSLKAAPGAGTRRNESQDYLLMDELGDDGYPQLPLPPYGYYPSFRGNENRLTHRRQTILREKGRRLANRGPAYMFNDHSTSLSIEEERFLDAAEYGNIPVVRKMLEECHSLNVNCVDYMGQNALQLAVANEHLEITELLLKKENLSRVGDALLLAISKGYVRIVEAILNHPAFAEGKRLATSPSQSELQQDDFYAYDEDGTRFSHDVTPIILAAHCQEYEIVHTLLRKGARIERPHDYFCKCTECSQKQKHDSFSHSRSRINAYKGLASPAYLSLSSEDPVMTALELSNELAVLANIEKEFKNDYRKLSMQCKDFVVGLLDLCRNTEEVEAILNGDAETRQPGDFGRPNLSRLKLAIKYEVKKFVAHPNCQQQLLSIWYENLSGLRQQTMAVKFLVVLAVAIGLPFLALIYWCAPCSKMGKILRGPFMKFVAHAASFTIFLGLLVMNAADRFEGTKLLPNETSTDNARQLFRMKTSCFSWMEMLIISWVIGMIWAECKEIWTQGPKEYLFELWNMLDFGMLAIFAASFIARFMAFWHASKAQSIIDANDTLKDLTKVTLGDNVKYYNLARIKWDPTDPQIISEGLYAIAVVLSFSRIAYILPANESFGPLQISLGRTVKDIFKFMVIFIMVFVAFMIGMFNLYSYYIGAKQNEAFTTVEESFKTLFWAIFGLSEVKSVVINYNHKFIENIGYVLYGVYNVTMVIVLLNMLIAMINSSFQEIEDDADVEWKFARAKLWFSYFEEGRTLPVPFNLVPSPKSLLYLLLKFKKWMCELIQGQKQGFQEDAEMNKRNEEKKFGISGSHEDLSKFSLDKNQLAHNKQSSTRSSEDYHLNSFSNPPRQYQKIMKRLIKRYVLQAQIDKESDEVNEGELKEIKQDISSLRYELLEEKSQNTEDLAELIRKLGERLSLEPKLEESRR

Only a part is listed here, and it is no random draw. Activity calls are given as the source filed them.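 How the source made its calls: active means B-score under library mean minus 3 SD, initial fluorescence not abnormally high, positive integrated signal ratio; inactive means the rest.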

This assay addresses Short transient receptor potential channel 6 (Mus musculus) (UniProt Q61143). Description: mouse TRPC6 channel inhibitors, primary screen, cell-based, HEK293, membrane potential dye (AID 2553).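 On B-score: B-score derived from integrated fluorescence ratio over the kinetic read; more negative B-score means stronger inhibition of depolarization.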 To be noted: ACh-evoked depolarization, at 10 µM; hits give low values.
`Clc1ccc(Cl)c(NC2=NCC(CBr)S2)c1` (configuration not stated): the outcome was inactive.

In the case of `CN(C)CCOC(=O)C(O)(c1ccccc1)C1CCCC1` (configuration not stated), the B-score is active: -10.1.

For the compound `Cc1c(NP(C)(=O)Oc2ccc(C(C)C)cc2)c(=O)n(-c2ccccc2)n1C` (configuration not stated), the call was inactive.

Regarding `Nc1cc(N)c2nonc2c1[N+](=O)[O-]`, the call was inactive.

Turning to `CC(C)CC(=O)NC(Sc1ccc(Cl)cc1)C(Cl)(Cl)Cl` (configuration not stated), the outcome was inactive.

For the compound `O=[N+]([O-])c1cc([N+](=O)[O-])c(Nc2ccccn2)c([N+](=O)[O-])c1`, the compound was called inactive.

As for `Oc1ccccc1CNc1ccccn1`, the compound was called inactive.

On to `O=C(NC(Sc1ccncn1)C(Cl)(Cl)Cl)c1ccccc1` (configuration not stated), for which the result was inactive.

In the case of `Cc1c2non([O-])c-2c(C)[n+](=O)[n+]1[O-]`, the outcome was inactive.

Consider `CP(=O)(Nc1ccccn1)Oc1ccccc1` (configuration not stated), for which the compound was called inactive.

With `COc1ccccc1OP(C)(=O)Nc1ccc(C)cc1C` (configuration not stated), the compound was called inactive.

On to `CCc1ccc(OP(C)(=O)O)cc1`, for which the call was inactive.

Take `CCN(CC)CC(O)COC(=O)C(O)(c1ccccc1)C1CCCCC1` (configuration not stated): the B-score is active: -6.24.

In the case of `COc1ccc(C2=NCC(CBr)S2)cc1` (configuration not stated), the call was inactive.

Regarding `COc1ccc(OP(C)(=O)Nc2ccc(Br)cc2)cc1` (configuration not stated), the outcome was inactive.

On to `O=[N+]([O-])c1cccc2n[nH]nc12`, for which the compound was called inactive.

`CC(=O)N1C2C3N(C(C)=O)C1C1N(C(C)=O)C(C(N1C(C)=O)N3C(C)=O)N2C(C)=O`: the compound was called inactive.

Turning to `COc1ccccc1OP(C)(=O)Nc1c(C)n(C)n(-c2ccccc2)c1=O` (configuration not stated), the result was inactive.

In the case of `O=C(OCCCN1CCCC1)C(O)(c1ccccc1)C1CCCCC1` (configuration not stated), the B-score was active: -9.95.

Consider `Cc1ccc(NP(=O)(Oc2ccccc2)Oc2ccccc2)nc1`, for which the compound was called inactive.

Regarding `CP(=O)(Oc1ccccc1)N1CCOC1=O` (configuration not stated), the compound was called inactive.

For the compound `CCc1ccc(OP(C)(=O)Nc2cccnc2)cc1` (configuration not stated), the outcome was inactive.

In the case of `CCc1nc2c(n1)c1c(non1O)c1c2no[n+]1[O-]`, the compound was classed as inactive.

For the compound `O=[N+]([O-])c1cc([N+](=O)[O-])c(CCNc2ccccc2)c([N+](=O)[O-])c1`, the result was inactive.

As for `COc1ccccc1OP(C)(=O)Nc1ccccc1Br` (configuration not stated), the call was inactive.

On to `CC(C)(C)c1ccc(OP(C)(=O)O)cc1`, for which the compound was called inactive.

For the compound `Nc1ccc([As](=O)(O)c2ccc(N)cc2)cc1`, the compound was classed as inactive.

In the case of `C[N+]1=C2C=CC=CC=C2SC12C([N+](=O)[O-])=CC([N+](=O)[O-])=C[C-]2[N+](=O)[O-]` (configuration not stated), the compound was classed as inactive.

Turning to `CCN(/C(=N/P(=O)(N1CCOCC1)N1CCOCC1)N1CCOCC1)c1ccc(OC)cc1`, the call was inactive.

On to `CP(=O)(Nc1ccc(Cl)cc1)Oc1ccc(F)cc1` (configuration not stated), for which the outcome was inactive.

On to `CN(C)C(=O)c1c([N+](=O)[O-])cc([N+](=O)[O-])cc1[N+](=O)[O-]`, for which the outcome was inactive.

As for `CC(C)=N/N=C(\N)N[N+](=O)[O-]`, the result was inactive.

For the compound `CN(C)C(=O)OCCc1n(C)cc[n+]1C`, the outcome was inactive.

As to `CC1CCN(C(=O)Oc2c(Cl)cc(Cl)c3cccnc23)CC1`, the outcome was inactive.

In the case of `Nc1ccc2c(ccc3cccnc32)n1.O=[N+]([O-])c1cc([N+](=O)[O-])c(O)c([N+](=O)[O-])c1`, the compound was called inactive.

On to `CCOC(=O)c1ccc(NP(C)(=O)Oc2ccc(Cl)cc2)cc1` (configuration not stated), for which the B-score was active: -8.2.

On to `O=C(Nc1cc([As](=O)(O)O)ccc1O)c1ccccc1`, for which the outcome was inactive.

Turning to `CP(=O)(OC12CC3CC(CC(C3)C1)C2)OC12CC3CC(CC(C3)C1)C2`, the call was inactive.

Regarding `CC(C)(C)C(=O)NC(Sc1ccncn1)C(Cl)(Cl)Cl` (configuration not stated), the call was inactive.

As for `O=[N+]([O-])c1ncn(CCn2ncnc2[N+](=O)[O-])n1`, the compound was called inactive.

Regarding `O=[N+]([O-])c1cccc(NC2=NCC(CBr)S2)c1` (configuration not stated), the result was inactive.

As for `O=C(O)CNc1ccc([As](=O)(O)O)cc1`, the result was inactive.
